This is an account of results in patent US9718738B2 (priority 2014, dated 2017).

This is a selection: effects in other tests are not listed, and their absence says nothing.

Assay [1] has as its system grain corn. Description: Midwestern crop study, grain corn yield. Format: in vivo. The settings on record: nitrogen application rate of 120 lbs N/acre; grain yield at 15.5% moisture.
Assay [2] relates to providence sweet corn. The assay is described as follows: Northeastern crop study, sweet corn harvestable yield. The settings on record: sandy soil, sidedress. As for the experimental part: Two Studies were completed in which two different crops were planted, in different geographies (i.e. midwestern US and northeastern US).
For the northeastern crop study, providence sweet corn was grown. […] One coated urea fertilizer composition was evaluated, urea coated with hydrotalcite (12 wt. %) and wax (3%, paraffin wax) (prepared as described above). The corn followed a typical agricultural schedule, planting occurred in July and harvesting occurred in September. Lysimeter samples were collected and analyzed for nitrate. The crop was reported as a harvestable yield (e.g. ears/acre and 100 lb/acre).
In both cases, the coated urea fertilizer was evaluated against controls including: urea (uncoated/unmodified), UAN (Urea/ammonium nitrate aqueous solution), and ESN (Environmentally Smart Nitrogen, Agrium, Inc.).
For the northeastern crop study, planting occurred in early July, with fertilizer application occurring (via sidedress) in early august and the harvest occurring in mid-September.

ammonium nitrate displayed a grain yield in assay [1] of 187.2 bu/acre. Moreover, the “Yield (100 wt)” value is listed as 87 100 wt in assay [2] (N Rate 100 lbs N/acre) and 99 100 wt in assay [2] (N Rate 140 lbs N/acre). The “Yield (1,000 ears/acre)” value is given as 15.8 1,000 ears/acre in assay [2] (N Rate 100 lbs N/acre) and 16.0 1,000 ears/acre in assay [2] (N Rate 140 lbs N/acre).
